The list shows a part of the results, in another mix than the full data. The source made the active and inactive calls. Cut-off read from the data, not from the text of the source: active = normalized activity above about 1.9%; inactive = the rest.

By UniProt entry, the sequences of proteins in these tests, tags left out. Where a name states a change or a piece, a line headed by the entry shows the natural chain unless it says otherwise.
UniProt Q969H0, whole entry, stated change not applied: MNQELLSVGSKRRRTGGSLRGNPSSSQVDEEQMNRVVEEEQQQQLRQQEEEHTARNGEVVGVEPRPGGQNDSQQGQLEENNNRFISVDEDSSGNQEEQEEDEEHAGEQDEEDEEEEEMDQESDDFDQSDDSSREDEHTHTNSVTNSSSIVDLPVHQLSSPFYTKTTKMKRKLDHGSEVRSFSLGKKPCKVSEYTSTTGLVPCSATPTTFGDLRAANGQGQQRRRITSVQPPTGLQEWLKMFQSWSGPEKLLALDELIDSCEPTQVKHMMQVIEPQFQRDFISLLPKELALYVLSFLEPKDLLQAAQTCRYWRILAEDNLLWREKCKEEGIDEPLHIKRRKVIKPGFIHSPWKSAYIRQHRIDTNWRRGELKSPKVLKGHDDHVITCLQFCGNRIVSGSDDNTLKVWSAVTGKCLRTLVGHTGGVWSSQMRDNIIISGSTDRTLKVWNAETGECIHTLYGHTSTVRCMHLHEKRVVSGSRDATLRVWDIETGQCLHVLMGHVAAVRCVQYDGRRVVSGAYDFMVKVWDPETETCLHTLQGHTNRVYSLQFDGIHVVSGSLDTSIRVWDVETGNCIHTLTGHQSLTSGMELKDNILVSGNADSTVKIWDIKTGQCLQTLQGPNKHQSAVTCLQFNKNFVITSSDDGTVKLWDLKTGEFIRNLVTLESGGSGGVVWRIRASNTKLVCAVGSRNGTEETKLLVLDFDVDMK

This assay concerns the target F-box/WD repeat-containing protein 7 (Homo sapiens) (UniProt Q969H0). Description: FBW7 E3 ligase activators, primary screen, biochemical, AlphaScreen, human (AID 1259310).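 Note: purified mutant Fbw7 with reduced substrate affinity.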 Conditions: AlphaScreen FBW7–phospho-cyclin E peptide binding, activator screen; at 26.1 µM; active compounds read high. A general note: Bead proximity is the source of the signal in Alpha formats.
`CP(=O)(O)Oc1cccc(Cl)c1Cl`: the normalized activity (activation) was inactive: 0.08%.
For the compound `Cc1cc(-c2cccc3ccccc23)c(C)cn1.O=[N+]([O-])c1cc([N+](=O)[O-])c(O)c([N+](=O)[O-])c1`, the normalized activity (activation) is inactive: 0.45%.
Under `O=[N+]([O-])c1cc([N+](=O)[O-])c(NCC2CCS(=O)(=O)C2)c([N+](=O)[O-])c1` (stereo not drawn) stands inactive: 0.73%; under `O=[N+]([O-])c1cc([N+](=O)[O-])c(Nc2c([N+](=O)[O-])cc([N+](=O)[O-])cc2[N+](=O)[O-])c([N+](=O)[O-])c1`, inactive: -0.06%.
Take `CN(C)CCOC(=O)C(O)(c1ccccc1)C1CCCCC1` (stereo not drawn): the normalized activity (activation) is inactive: 0.61%.
Under `COc1ccc(NP(C)(=O)Oc2ccccc2OC)cc1` (stereo not drawn) stands inactive: -0.18%; under `CC(=O)OC1(C#N)CN2CCC1CC2` (stereo not drawn), inactive: -0.06%; under `C=CCN1CCN(CCOC(=O)C(O)(c2ccccc2)c2ccccc2)CC1`, inactive: -0.13%.
Under `O=[N+]([O-])c1ccc(Nc2c([N+](=O)[O-])cc([N+](=O)[O-])cc2[N+](=O)[O-])cc1` stands inactive: -0.62%.
Regarding `Cc1ccccc1NP(C)(=O)Nc1ccccc1C`, the normalized activity (activation) was inactive: 0.05%.
Under `COC(=O)Nc1nc2ccccc2[nH]1.O=C1CCCN1c1ccc(S(=O)(=O)O)cc1[N+](=O)[O-]` stands inactive: 0.16%; under `CCN(CC)c1c([N+](=O)[O-])cc([N+](=O)[O-])cc1[N+](=O)[O-]`, inactive: -0.15%; under `CP(=O)(Nc1ccc2c(c1)OCCO2)Oc1ccccc1` (stereo not drawn), inactive: 0.24%.
Consider `[N-]=[N+]=NCN1c2nonc2N(CN=[N+]=[N-])c2nonc21`, for which the normalized activity (activation) is inactive: -0.21%.
For `Cc1ccc(Cl)c(OP(C)(=O)Nc2ccc(F)cc2)c1` (stereo not drawn), the normalized activity (activation) is inactive: -0.16%.
With `Cc1c([N+](=O)[O-])c(C)c([N+](=O)[O-])c(C)c1[N+](=O)[O-]`, the normalized activity (activation) was inactive: 0.34%.
Then `CP(=O)(O)OC(c1ccccc1)C(F)(F)C(F)(F)F` (stereo not drawn), with inactive: 0.6%.
Under `COc1ccc(OP(C)(=O)Nc2ccccc2)cc1` (stereo not drawn) stands inactive: -0.14%; under `CP(=O)(Nc1cccnc1)Oc1ccc(Cl)cc1` (stereo not drawn), inactive: 0.16%; under `Cc1cc([N+](=O)[O-])c(NCC(C)([N+](=O)[O-])[N+](=O)[O-])c([N+](=O)[O-])c1[N+](=O)[O-]`, inactive: 0.04%.
Under `O=C(OCCN1CCN(CCOCc2ccccc2)CC1)C(O)(c1ccccc1)c1ccccc1` stands inactive: 0.05%; under `CP(=O)(Nc1ccccc1F)Oc1ccccc1` (stereo not drawn), inactive: -0.09%.
In the case of `C=CCNc1c([N+](=O)[O-])cc([N+](=O)[O-])c(C)c1[N+](=O)[O-]`, the normalized activity (activation) was inactive: -0.16%.

The values above are taken from PubChem BioAssay AID1259310 (The Scripps Research Institute Molecular Screening Center, 2017).
